scFv variants of Ab-91 (heavy chain) against a SARS-CoV-2 spike peptide

From the AlphaSeq antibody data of Engelhart et al. 2022 (doi:10.1038/s41597-022-01779-4), copy in the FLAb collection.

Target: peptide PDVDLGDISGINAS, taken from heptad repeat 2 (HR2) of SARS-CoV-2 spike.

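The parent was found by panning a naive human phage display library on the peptide. The library (AAYL51) carries one to three amino acid substitutions per variant, with no insertions or deletions. In AlphaSeq, yeast of one mating type display the scFv and yeast of the other type display the target. Pairs that bind mate more often; barcode pairs of the diploids are counted by sequencing. A regression on co-assayed BCL2-family reference pairs converts the normalised counts of each replicate to an apparent Kd. Mating was done three times.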

Ab-91 is the parent antibody, in scFv form: VL, then three GGGGS repeats, then VH. The light chain is unchanged in all variants.
VL: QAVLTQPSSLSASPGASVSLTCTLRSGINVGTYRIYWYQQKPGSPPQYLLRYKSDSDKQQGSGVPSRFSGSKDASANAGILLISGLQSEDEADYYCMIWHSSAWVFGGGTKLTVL
VH: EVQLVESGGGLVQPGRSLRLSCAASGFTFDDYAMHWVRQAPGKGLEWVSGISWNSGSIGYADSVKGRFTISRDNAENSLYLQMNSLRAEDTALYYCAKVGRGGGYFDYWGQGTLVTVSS

Substitutions are numbered in sequence along the VH above, starting at 1 (not Kabat). Scale: log10 of Kd in nM, estimated from mating counts; low values are strong binders. An entry "n.d." has no value in the source: the pair was not observed among the diploids in that replicate. This suggests poor binding but is not conclusive. Background: pairings of library AAYL51 with three empty control strains gave a value in 21% of cases (median 4.54, 5th percentile 3.26). Values in that range, when seen in few replicates, are hard to tell from nonspecific mating. The control count says in how many pairings with the empty strains this scFv gave a signal, with their mean in brackets.

{"changes": "Y32A/I58Y/R101W", "log10 Kd, replicates": "n.d. 2.35 3.95", "control signals": "0 of 9"}
{"changes": "N54H/S57Q/G59R", "log10 Kd, replicates": "5.05 n.d. n.d.", "control signals": "3 of 9 (4.09)"}
{"changes": "F27I/N54V/S63F", "log10 Kd, replicates": "4.16 n.d. n.d.", "control signals": "1 of 9 (4.46)"}
{"changes": "T28W/G102V", "log10 Kd, replicates": "2.02 1.75 1.71", "control signals": "0 of 9"}
{"changes": "V99Y/G104L/D107Y", "log10 Kd, replicates": "1.80 1.66 1.64", "control signals": "7 of 9 (4.81)"}
{"changes": "G56T/V64G/G102Y", "log10 Kd, replicates": "n.d. n.d. n.d.", "control signals": "0 of 9"}
{"changes": "G26I/N54F", "log10 Kd, replicates": "n.d. n.d. n.d.", "control signals": "0 of 9"}
{"changes": "M34Y/S55K/K65R", "log10 Kd, replicates": "4.99 n.d. n.d.", "control signals": "4 of 9 (4.54)"}
{"changes": "F27S/V64Q/Y105D", "log10 Kd, replicates": "n.d. n.d. n.d.", "control signals": "0 of 9"}
{"changes": "G59P/R101H", "log10 Kd, replicates": "n.d. n.d. n.d.", "control signals": "0 of 9"}
{"changes": "W53V/S55N/G56V", "log10 Kd, replicates": "n.d. n.d. n.d.", "control signals": "4 of 9 (5.04)"}
{"changes": "M34C/I58Y/G103I", "log10 Kd, replicates": "3.98 5.10 n.d.", "control signals": "0 of 9"}
{"changes": "Y32S/G59R/D62S", "log10 Kd, replicates": "5.10 n.d. n.d.", "control signals": "1 of 9 (3.98)"}
{"changes": "Y32K/G59Y/G103Q", "log10 Kd, replicates": "6.00 n.d. 4.45", "control signals": "2 of 9 (4.63)"}
{"changes": "F29K/I51V/G102F", "log10 Kd, replicates": "4.44 4.40 3.51", "control signals": "1 of 9 (3.88)"}
{"changes": "Y32M/R101P", "log10 Kd, replicates": "2.49 2.60 2.47", "control signals": "1 of 9 (4.95)"}
{"changes": "D31W/G50M/V64H", "log10 Kd, replicates": "n.d. n.d. n.d.", "control signals": "0 of 9"}
{"changes": "F27Y/T28Q/V64C", "log10 Kd, replicates": "n.d. n.d. n.d.", "control signals": "0 of 9"}
{"changes": "M34F/S57M/V64E", "log10 Kd, replicates": "n.d. n.d. n.d.", "control signals": "1 of 9 (3.78)"}
{"changes": "I51S/S55A/S57V", "log10 Kd, replicates": "n.d. n.d. n.d.", "control signals": "0 of 9"}
{"changes": "G26L/I58C/S63V", "log10 Kd, replicates": "n.d. n.d. n.d.", "control signals": "0 of 9"}
{"changes": "D30Q/Y60C/G104H", "log10 Kd, replicates": "3.79 n.d. n.d.", "control signals": "0 of 9"}
{"changes": "S57K/K65Q/G104A", "log10 Kd, replicates": "5.09 6.80 5.77", "control signals": "6 of 9 (4.73)"}

Repeated from above, the 4 best binders with a signal in all replicates:

changes,"log10 Kd, replicates",control signals
V99Y/G104L/D107Y,1.80 1.66 1.64,7 of 9 (4.81)
T28W/G102V,2.02 1.75 1.71,0 of 9
Y32M/R101P,2.49 2.60 2.47,1 of 9 (4.95)
F29K/I51V/G102F,4.44 4.40 3.51,1 of 9 (3.88)

In this assay the parent's reference entry averaged 1.86; its copy inside this library read 0.88.